This passage reports Kd results from ChEMBL document CHEMBL3616394 (Eur J Med Chem, 2015).

By UniProt entry, the sequences of proteins in these tests, tags left out.
UniProt P58154, whole entry: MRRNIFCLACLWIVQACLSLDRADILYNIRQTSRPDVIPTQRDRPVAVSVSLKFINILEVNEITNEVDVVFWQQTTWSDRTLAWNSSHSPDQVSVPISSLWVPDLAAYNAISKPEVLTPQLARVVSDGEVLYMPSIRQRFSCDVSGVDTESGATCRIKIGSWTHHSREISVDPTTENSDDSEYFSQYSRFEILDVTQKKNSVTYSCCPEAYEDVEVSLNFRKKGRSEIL

This assay has as its target Acetylcholine-binding protein (Lymnaea stagnalis, UniProt P58154).

The Kd is the constant that tells how readily two partners part at equilibrium. Read a low Kd as a tighter complex. With `CN1CCC[C@H]1c1cccnc1` [NICOTINE], the equilibrium dissociation constant (Kd) was 320 nM.
